Measurements reported in publication PMC7612757 (Science (New York, N.Y.), 2022).
Like-named read-outs stand apart in the source and are kept apart here.

B1: CENP-M (natural protein)
chain: MSVLRPLDKLPGLNTATILLVGTEDALLQQLADSMLKEDCASELKVHLAKSLPLPSSVNRPRIDLIVFVVNLHSKYSLQNTEESLRHVDASFFLGKVCFLATGAGRESHCSIHRHTVVKLAHTYQSPLLYCDLEVEGFRATMAQRLVRVLQICAGHVPGVSALNLLSLLRSSEGPSLEDL
B2: CENP-O (natural protein)
chain: MEQANPLRPDGESKGGVLAHLERLETQVSRSRKQSEELQSVQAQEGALGTKIHKLRRLRDELRAVVRHRRASVKACIANVEPNQTVEINEQEALEEKLENVKAILQAYHFTGLSGKLTSRGVCVCISTAFEGNLLDSYFVDLVIQKPLRIHHHSVPVFIPLEEIAAKYLQTNIQHFLFSLCEYLNAYSGRKYQADRLQSDFAALLTGPLQRNPLCNLLSFTYKLDPGGQSFPFCARLLYKDLTATLPTDVTVTCQGVEVLSTSWEEQRASHETLFCTKPLHQVFASFTRKGEKLDMSLVS
B3: CENP-K (natural protein)
chain: MNQEDLDPDSTTDVGDVTNTEEELIRECEEMWKDMEECQNKLSLIGTETLTDSNAQLSLLIMQVKCLTAELSQWQKKTPETIPLTEDVLITLGKEEFQKLRQDLEMVLSTKESKNEKLKEDLEREQRWLDEQQQIMESLNVLHSELKNKVETFSESRIFNELKTKMLNIKEYKEKLLSTLGEFLEDHFPLPDRSVKKKKKNIQESSVNLITLHEMLEILINRLFDVPHDPYVKISDSFWPPYVELLLRNGIALRHPEDPTRIRLEAFHQ
B4: CENP-W (natural protein)
chain: MALSTIVSQRKQIKRKAPRGFLKRVFKRKKPQLRLEKSGDLLVHLNCLLFVHRLAEESRTNACASKCRVINKEHVLAAAKVILKKSRG
B5: CENP-H (natural protein)
chain: MEEQPQMQDADEPADSGGEGRAGGPPQVAGAQAACSEDRMTLLLRLRAQTKQQLLEYKSMVDASEEKTPEQIMQEKQIEAKIEDLENEIEEVKVAFEIKKLALDRMRLSTALKKNLEKISRQSSVLMDNMKHLLELNKLIMKSQQESWDLEEKLLDIRKKRLQLKQASESKLLEIQTEKNKQKIDLDSMENSERIKIIRQNLQMEIKITTVIQHVFQNLILGSKVNWAEDPALKEIVLQLEKNVDMM

What was measured:
Assay in all cases: cryo-EM structure
[1] = biological target: T1, CENP-N (human, UniProt Q96H22)
[2] = biological target: T2, CENP-L (human, UniProt Q8N0S6 1-344)
T2 sequence: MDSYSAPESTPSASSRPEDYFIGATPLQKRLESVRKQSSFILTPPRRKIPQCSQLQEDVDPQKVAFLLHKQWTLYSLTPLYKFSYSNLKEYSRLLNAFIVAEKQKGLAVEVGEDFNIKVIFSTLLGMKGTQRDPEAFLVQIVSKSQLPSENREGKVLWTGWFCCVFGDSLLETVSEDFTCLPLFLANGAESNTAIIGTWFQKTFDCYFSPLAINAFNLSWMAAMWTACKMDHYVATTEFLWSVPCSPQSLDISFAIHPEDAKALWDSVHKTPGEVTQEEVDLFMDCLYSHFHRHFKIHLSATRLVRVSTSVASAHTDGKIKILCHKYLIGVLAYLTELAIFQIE

[3] = biological target: B3
[4] = biological target: T3, CENP-I (human, UniProt Q92674 1-756)
T3 sequence: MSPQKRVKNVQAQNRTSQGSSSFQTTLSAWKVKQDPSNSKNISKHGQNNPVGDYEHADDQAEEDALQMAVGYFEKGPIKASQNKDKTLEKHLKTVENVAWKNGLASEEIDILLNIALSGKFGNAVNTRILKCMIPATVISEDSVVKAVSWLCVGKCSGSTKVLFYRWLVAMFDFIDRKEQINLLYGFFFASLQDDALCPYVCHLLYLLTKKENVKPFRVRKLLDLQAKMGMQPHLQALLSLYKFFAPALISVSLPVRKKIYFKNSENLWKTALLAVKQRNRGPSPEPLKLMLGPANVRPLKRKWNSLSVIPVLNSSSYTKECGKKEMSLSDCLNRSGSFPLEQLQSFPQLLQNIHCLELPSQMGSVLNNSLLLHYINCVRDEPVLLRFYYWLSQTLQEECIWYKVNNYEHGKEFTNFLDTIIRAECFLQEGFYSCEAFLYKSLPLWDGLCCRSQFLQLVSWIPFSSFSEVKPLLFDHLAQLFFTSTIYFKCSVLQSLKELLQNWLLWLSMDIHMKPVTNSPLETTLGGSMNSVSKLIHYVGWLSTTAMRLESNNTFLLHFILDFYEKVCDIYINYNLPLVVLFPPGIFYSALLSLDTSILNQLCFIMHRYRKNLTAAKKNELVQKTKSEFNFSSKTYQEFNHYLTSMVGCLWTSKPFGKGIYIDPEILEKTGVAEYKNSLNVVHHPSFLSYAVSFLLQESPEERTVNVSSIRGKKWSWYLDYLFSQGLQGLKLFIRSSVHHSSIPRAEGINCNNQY

[5] = biological target: B2
[6] = biological target: T1, CENP-N; remark: listed apart in the source

Row | Binder | binding result [3] | binding result [4] | other results
1 | B1 | binds | binds | binding result [1]: binds; binding result [2]: binds
2 | B2 | – | binds | –
3 | B3 | – | – | binding result [5]: binds
4 | B4 | – | – | binding result [6]: binds
5 | B5 | binds | – | –
